Data: publication PMC4980839 (Archiv der Pharmazie, 2010)

Sequences of proteins named here, by UniProt entry; tags and fusion partners are left off. A change or cut given only in a name is not applied to a line headed by its entry.
UniProt Q07343: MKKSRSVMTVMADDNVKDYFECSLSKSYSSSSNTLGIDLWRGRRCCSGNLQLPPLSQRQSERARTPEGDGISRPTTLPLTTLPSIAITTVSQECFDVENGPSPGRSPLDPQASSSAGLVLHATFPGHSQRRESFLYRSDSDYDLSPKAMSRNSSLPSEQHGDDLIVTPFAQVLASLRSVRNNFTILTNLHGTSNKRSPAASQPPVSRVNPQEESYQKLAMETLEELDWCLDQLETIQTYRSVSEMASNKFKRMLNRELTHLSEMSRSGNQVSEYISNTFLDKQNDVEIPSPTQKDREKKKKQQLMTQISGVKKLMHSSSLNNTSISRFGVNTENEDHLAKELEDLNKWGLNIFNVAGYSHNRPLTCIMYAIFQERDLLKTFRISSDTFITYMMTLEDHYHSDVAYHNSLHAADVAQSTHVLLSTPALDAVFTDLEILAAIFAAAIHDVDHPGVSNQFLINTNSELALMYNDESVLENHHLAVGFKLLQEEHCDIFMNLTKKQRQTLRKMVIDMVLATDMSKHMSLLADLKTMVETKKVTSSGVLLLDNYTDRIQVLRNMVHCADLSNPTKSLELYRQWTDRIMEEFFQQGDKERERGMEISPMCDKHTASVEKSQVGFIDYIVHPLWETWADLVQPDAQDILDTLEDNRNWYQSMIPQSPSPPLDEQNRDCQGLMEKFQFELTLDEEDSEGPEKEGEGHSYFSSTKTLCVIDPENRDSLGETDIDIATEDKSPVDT

Target: PDE4B (Homo sapiens, UniProt Q07343)
Experiment: PDE4B inhibition
Format: biochemical

- IC50: > 50 µM
SMILES: CN1CC(=O)N2[C@H](c3ccc4c(c3)OCO4)c3[nH]c4ccccc4c3C[C@@H]2C1=O [Tadalafil, reference compound]
